Literature values in paper PMC4605401 (2009).

Chains of the proteins cited; added tags and fusions are not shown. Lines headed by an entry give the natural chain unless they say otherwise; changes in a name come on top.
UniProt P47900: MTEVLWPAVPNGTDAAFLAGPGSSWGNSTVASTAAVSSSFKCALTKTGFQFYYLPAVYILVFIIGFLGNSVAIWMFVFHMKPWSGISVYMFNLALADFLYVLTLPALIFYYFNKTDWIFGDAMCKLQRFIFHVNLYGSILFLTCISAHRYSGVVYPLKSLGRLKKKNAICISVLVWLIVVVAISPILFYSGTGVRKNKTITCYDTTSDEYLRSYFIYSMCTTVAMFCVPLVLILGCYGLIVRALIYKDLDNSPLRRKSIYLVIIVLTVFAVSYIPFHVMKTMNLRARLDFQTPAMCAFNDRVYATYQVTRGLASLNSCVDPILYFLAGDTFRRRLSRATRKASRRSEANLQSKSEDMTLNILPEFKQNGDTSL

How the values were obtained:
P2Y1 receptor [1] = conditions: read-out: previously reported Kd, standard membrane binding, ref [11]; cited from earlier work
P2Y1 receptor [2] = target: P2Y1 receptor (Homo sapiens, UniProt P47900); conditions: read-out: previously reported Kd, CMAC approach, earlier CMAC(1321N1P2Y1) column, ref [6]; cited from earlier work

CSc1nc(N)c2ncn([C@@H]3O[C@H](COP(=O)(O)OP(=O)(O)O)[C@@H](O)[C@H]3O)c2n1 [2-MeSADP]
Kd (P2Y1 receptor [1]): 50 nM | Kd (P2Y1 receptor [2]): 186 nM
